# Data: PubChem BioAssay AID1779 (Sanford-Burnham Center for Chemical Genomics, 2009)
# Sequences of proteins named here, by UniProt entry; tags and fusion partners are left off.
# UniProt Q9Y2R2, whole entry: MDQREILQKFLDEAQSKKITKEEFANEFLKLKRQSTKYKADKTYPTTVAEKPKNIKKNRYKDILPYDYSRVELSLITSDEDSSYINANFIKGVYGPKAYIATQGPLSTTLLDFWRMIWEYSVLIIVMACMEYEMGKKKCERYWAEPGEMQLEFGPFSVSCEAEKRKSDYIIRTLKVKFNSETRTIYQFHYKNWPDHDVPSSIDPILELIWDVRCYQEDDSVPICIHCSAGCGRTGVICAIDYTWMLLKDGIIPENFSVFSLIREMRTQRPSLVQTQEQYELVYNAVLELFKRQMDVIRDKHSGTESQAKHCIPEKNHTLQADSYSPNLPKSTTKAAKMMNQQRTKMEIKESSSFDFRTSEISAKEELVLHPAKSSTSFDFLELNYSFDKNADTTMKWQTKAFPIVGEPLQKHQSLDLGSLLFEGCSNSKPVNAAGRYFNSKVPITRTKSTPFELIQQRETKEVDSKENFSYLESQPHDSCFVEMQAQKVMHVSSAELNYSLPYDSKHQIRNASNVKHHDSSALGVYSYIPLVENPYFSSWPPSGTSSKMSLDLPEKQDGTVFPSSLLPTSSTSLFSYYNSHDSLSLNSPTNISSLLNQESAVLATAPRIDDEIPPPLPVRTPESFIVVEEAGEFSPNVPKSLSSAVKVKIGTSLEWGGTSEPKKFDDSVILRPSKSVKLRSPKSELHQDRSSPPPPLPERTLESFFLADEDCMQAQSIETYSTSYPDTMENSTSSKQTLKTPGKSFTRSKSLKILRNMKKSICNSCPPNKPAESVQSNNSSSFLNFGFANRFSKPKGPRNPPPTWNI
# The entries are a selection whose mix differs from that of the whole data set. Some of these compounds have results that are not shown, active ones among them. Activity calls are given as the source filed them. No stated cut-off is given here; in the data, active means inhibition above about 50%; inactive means the rest.
# Molecular target: Tyrosine-protein phosphatase non-receptor type 22 (Homo sapiens) (UniProt Q9Y2R2)
# Assay: inhibitors of LYP phosphatase, biochemical, fluorescence intensity, uHTS (AID 1779);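 further: plate controls were vehicle with enzyme for no effect and no enzyme for full effect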
# Conditions: recombinant LYP phosphatase, at 11.5 µM, hits give high values
row,Structure (SMILES),inhibition
1,CN(C)C1(CNC(=O)c2ccc(Br)cc2)CCCCC1,inactive: -10.1%
2,COc1cc(C(=O)NCC2(N(C)C)CCCCC2)c([N+](=O)[O-])cc1OC,inactive: -4.8%
3,COc1cccc(C(=O)NCC2(N3CCCCC3)CCCCC2)c1,inactive: -3.2%
4,COc1ccc(Cl)cc1C(=O)NCC1(N(C)C)CCCCC1,inactive: -6.6%
5,O=C(NCC1(N2CCCCC2)CCCCC1)c1cccc(Cl)c1,inactive: -2.1%
6,O=C(OC1CN2CCC1CC2)C(CO)(c1ccccc1)c1ccccc1 (centres undefined),inactive: 4.2%
7,COc1ccc(Br)c(C(=O)NCC2(N3CCCCC3)CCCCC2)c1,inactive: 6.9%
8,CN(C)c1cccc(C(=O)NCC2(N(C)C)CCCCC2)c1,inactive: -6.1%
9,CC(C)Oc1ccc(C(=O)NCC2(N(C)C)CCCCC2)cc1,inactive: -11.6%
10,O=C(NCC1(N2CCCCC2)CCCCC1)c1cc([N+](=O)[O-])ccc1Cl,inactive: -2.8%
11,CN1[C@@H]2CC[C@H]1CC(OC(=O)C(O)(c1ccccc1)c1ccccc1)C2 (some centres undefined),inactive: -5.5%
12,CC(C)N1C(=O)CC2(CCN(CCOC(=O)C(O)(c3ccccc3)c3ccccc3)CC2)C1=O,inactive: -4.5%
13,CCN(CC)CC(C)C(C)OC(=O)C(O)(c1ccccc1)c1ccccc1 (centres undefined),inactive: -5.5%
14,COc1cc(SC)ccc1C(=O)NCC1(N(C)C)CCCCC1,inactive: -4.2%
15,Cc1ccc(C(=O)NCC2(N3CCCCC3)CCCCC2)cc1,inactive: -9.4%
16,Cc1ccccc1C(=O)NCC1(N2CCCCC2)CCCCC1,inactive: 6.1%
17,CN(C)C1CCCC1OC(=O)C(O)(c1ccccc1)c1ccccc1 (centres undefined),inactive: -2.1%
18,CN(C)c1ccc(C(=O)NCC2(N(C)C)CCCCC2)cc1,inactive: -4%
19,C=CCN1CCN(CCOC(=O)C(O)(c2ccccc2)c2ccccc2)CC1,inactive: -13.1%
20,O=C(NCC1(N2CCCCC2)CCCCC1)c1cc(F)c(F)cc1Cl,inactive: -6.8%
21,Cc1cc(C(=O)NCC2(N3CCCCC3)CCCCC2)ccc1[N+](=O)[O-],inactive: -7.6%
22,CCN1CCCC(OC(=O)C2(O)c3ccccc3C=Cc3ccccc32)C1 (centres undefined),inactive: 2.9%
23,O=C(NCC1(N2CCCCC2)CCCCC1)c1cccc(Br)c1,inactive: -3.9%
24,COc1ccc(C(=O)NCC2(N(C)C)CCCCC2)cc1,inactive: -10%
